“And” between values parts separate entries of the source, which are not always exact repeats. Equal entries are not always repeated. The entries are a selection whose mix differs from that of the whole data set. The source made the active and inactive calls.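 How the source made its calls: active means thallium flux slope and its plate-corrected score both differing from the plate sample mean at a set confidence after two filtering rounds, in either direction; inactive means the rest.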

Protein sequences, listed by entry. Tags and fused reporters are not part of them. Lines headed by an entry give the natural chain unless they say otherwise; changes in a name come on top.
UniProt Q9H2X9: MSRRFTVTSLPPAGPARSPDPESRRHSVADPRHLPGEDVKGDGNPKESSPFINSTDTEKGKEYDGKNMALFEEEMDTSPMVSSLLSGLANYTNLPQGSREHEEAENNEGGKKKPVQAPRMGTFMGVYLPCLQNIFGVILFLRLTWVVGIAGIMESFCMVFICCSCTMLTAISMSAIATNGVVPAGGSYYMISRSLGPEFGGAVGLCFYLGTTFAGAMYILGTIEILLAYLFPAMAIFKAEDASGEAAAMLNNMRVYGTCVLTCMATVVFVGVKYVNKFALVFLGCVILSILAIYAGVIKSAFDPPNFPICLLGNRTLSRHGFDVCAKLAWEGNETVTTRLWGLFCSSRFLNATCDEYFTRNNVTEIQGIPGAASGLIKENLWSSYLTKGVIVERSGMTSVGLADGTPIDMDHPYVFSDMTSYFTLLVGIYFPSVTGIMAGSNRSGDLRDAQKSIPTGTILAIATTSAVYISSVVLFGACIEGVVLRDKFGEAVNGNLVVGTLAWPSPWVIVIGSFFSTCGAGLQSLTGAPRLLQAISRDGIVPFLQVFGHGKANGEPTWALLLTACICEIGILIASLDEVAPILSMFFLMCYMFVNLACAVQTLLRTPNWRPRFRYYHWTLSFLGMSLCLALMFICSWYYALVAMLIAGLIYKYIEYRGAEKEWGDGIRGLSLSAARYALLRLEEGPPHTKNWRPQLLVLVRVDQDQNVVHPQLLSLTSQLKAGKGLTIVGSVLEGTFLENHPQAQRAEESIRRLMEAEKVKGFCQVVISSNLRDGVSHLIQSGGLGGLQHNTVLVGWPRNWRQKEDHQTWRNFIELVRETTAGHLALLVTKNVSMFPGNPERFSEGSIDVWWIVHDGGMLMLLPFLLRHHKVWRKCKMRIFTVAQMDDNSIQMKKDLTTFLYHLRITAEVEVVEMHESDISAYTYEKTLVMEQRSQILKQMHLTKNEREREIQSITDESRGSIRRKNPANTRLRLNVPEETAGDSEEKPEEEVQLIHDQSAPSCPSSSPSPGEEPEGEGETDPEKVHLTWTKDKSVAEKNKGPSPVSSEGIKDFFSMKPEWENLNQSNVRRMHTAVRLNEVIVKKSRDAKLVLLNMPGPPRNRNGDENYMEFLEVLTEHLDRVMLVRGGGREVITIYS

For the experiment, the target named is Solute carrier family 12 member 5 (Homo sapiens) (UniProt Q9H2X9). The experiment in a line: KCC2 cotransporter modulators, thallium flux, primary screen, cell-based, HEK293 KCC2, FluoZin-2 fluorescence, MLSMR (AID 1456). Particulars: KCC2 cells, thallium flux FluoZin-2 fluorescence; at 10 µM; hits give high values.
Take `O=C(OC1CN2CCC1CC2)c1ccc(Cl)cc1` (configuration not stated): the B-score was inactive: 0.927.

Take `CCOP(=O)(Nc1cccc2ccccc12)OCC`: the B-score is inactive: 0.436.

`COc1cc(C2NCCC3(OCCO3)C2(C)C)cc(OC)c1OC` (configuration not stated): the B-score was inactive: -0.825.

Consider `Cc1ccc(NCCc2c([N+](=O)[O-])cc([N+](=O)[O-])cc2[N+](=O)[O-])cc1`, for which the B-score was inactive: -0.0273.

For `Nc1cccc2c([As](=O)(O)O)cccc12`, the B-score was inactive: -0.894.

In the case of `Nc1ccccc1[As](=O)(O)c1ccccc1`, the B-score is inactive: 0.0378.

As for `O=C(O)COc1ccc([As](=O)(O)O)cc1[N+](=O)[O-]`, the B-score is inactive: -0.000825.

In the case of `CS(=O)(=O)c1cc([N+](=O)[O-])c2no[n+]([O-])c2c1`, the B-score is inactive: 1.25.

With `O=P(Nc1nccs1)(Oc1ccccc1)Oc1ccccc1`, the B-score is inactive: -0.168.

Turning to `O=P(Nc1nccs1)(c1ccccc1)c1nc2ccccc2s1` (configuration not stated), the B-score was inactive: 2.47.

For the compound `CCOP1(=S)c2c(C)nn(CCC#N)c2N=C(c2ccccc2F)N1C` (configuration not stated), the B-score was inactive: 1.12.

As for `O=[N+]([O-])c1ccc2c(c1)nnn2O`, the B-score is inactive: -0.0953.

Regarding `CN(C(=O)Cc1ccccc1)[C@@H]1CC[C@]2(CCCO2)C[C@H]1N1CCCC1`, the B-score is inactive: -0.271.

As for `CCOP1(=S)c2c(C)nn(CCC#N)c2N=C(c2ccc(F)cc2)N1C` (configuration not stated), the B-score is inactive: 0.0258.

As for `NC(=O)Nc1ccc([As](=O)(O)O)cc1`, the B-score is inactive: 1.36.

For the compound `O=C(/C=C/c1ccccc1)OC1CN2CCC1CC2` (configuration not stated), the B-score is inactive: -0.899.

As to `CN(C)C1(CNC(=O)c2ccc(S(C)(=O)=O)cc2)CCCCC1`, the B-score is inactive: 0.254.

In the case of `Cc1nn(-c2ccccc2)c2c1P(=O)(N1CCOCC1)N(C)C(c1ccccc1)=N2` (configuration not stated), the B-score was inactive: 0.00554.

On to `Cc1ccc(OCC(=O)OC2CN3CCC2CC3)cc1` (configuration not stated), for which the B-score was inactive: 0.094.

As for `O=[As](O)(c1cccs1)c1cccs1`, the B-score is inactive: 1.2.

Regarding `Nc1cccc([As](=O)(O)c2ccccc2)c1`, the B-score was inactive: -0.891.

`CC(C)(C)C(=O)NC(Sc1ncccn1)C(Cl)(Cl)Cl` (configuration not stated): the B-score is inactive: -0.773.

Turning to `Clc1n[nH]nc1-c1nn[nH][15n]1`, the B-score was inactive: 0.356.

On to `O=P1(Nc2ccccn2)COc2ccccc2OC1`, for which the B-score was inactive: -0.0951.

For the compound `CC1(CBr)Cn2c(nc3ccccc3c2=O)S1` (configuration not stated), the B-score was inactive: -0.17.

In the case of `O=[As](O)(c1ccccc1Br)c1ccccc1Br`, the B-score is inactive: 0.298.

`CN(C(=O)Cc1ccc(Cl)c(Cl)c1)[C@@H]1CCCC[C@H]1N1CCCC1`: the B-score was inactive: -0.258.

Take `c1nnnn1CCn1cnnn1`: the B-score is inactive: -0.187.

Take `CC(C)C(=O)NC(Sc1ccccc1)C(Cl)(Cl)Cl` (configuration not stated): the B-score is inactive: -1.32.

Take `O=P(Nc1nccs1)(c1ccccc1)c1ccccc1`: the B-score is inactive: 0.919.

Turning to `C[C@H]1OP(=O)(Oc2ccccc2)[C@H](O)[C@H](O)[C@H]1N=[N+]=[N-]` (some centres not stated), the B-score was inactive: 0.556.

For `O=P(Nc1nc2ccccc2s1)(c1ccccc1)c1ccccc1`, the B-score was inactive: 0.996.

With `O=P(Nc1ccccn1)(c1ccc(Br)cc1)c1ccc(Br)cc1`, the B-score was inactive: 0.345.

Consider `C(Cc1nn[nH]n1)Cc1nn[nH]n1`, for which the B-score was inactive: 0.489.

For the compound `Nc1ccc([As](=O)(O)c2ccc([N+](=O)[O-])cc2)cc1`, the B-score was inactive: 0.27.

`O=C(OC1CN2CCC1CC2)c1cccc(Cl)c1` (configuration not stated): the B-score is inactive: 0.639.

In the case of `CC(=O)NC(SC(=S)N(C)C)C(Cl)(Cl)Cl` (configuration not stated), the B-score is inactive: 1.24.

For `O=[N+]([O-])c1ncn(CCn2cnc([N+](=O)[O-])n2)n1`, the B-score was inactive: 0.104.

Turning to `O=[As](O)(c1ccccc1)c1ccc(O)cc1`, the B-score was inactive: -0.112.

As to `CCNC(=S)/N=C(\N)N[N+](=O)[O-]`, the B-score was inactive: 0.0122.

On to `O=C(NC1CCS(=O)(=O)C1)NP(=S)(Oc1ccccc1)Oc1ccccc1` (configuration not stated), for which the B-score is inactive: 1.55.

With `Cc1ccc(NP(=O)(Oc2cccc(C)c2)Oc2cccc(C)c2)nc1`, the B-score was inactive: 0.719.

On to `CCOC(=O)NC(Sc1ccccc1)C(Cl)(Cl)Cl` (configuration not stated), for which the B-score is inactive: 0.558.

On to `c1ccc(-c2nn[nH]n2)c(-c2nn[nH]n2)c1`, for which the B-score is inactive: 1.48.

Regarding `O=c1c2cc([N+](=O)[O-])ccc2[nH]c2c([N+](=O)[O-])cc([N+](=O)[O-])cc12`, the B-score was active: 7.43.

As for `CN(C)C(=O)Oc1noc2ccccc12`, the B-score is inactive: -0.31.

`Cc1ccccc1OP(=O)(Nc1ccccn1)Oc1ccccc1C`: the B-score is inactive: -1.43.

In the case of `Cc1ccc(OP(=O)(Nc2ccccn2)Oc2ccc(C)cc2)cc1`, the B-score is inactive: -0.321.

Regarding `COC(=O)c1cc2c(s1)N=C(c1ccccc1)N(C)P2(=O)N1CCOCC1` (configuration not stated), the B-score is inactive: 0.689.

`CCC(=O)N1C2C3N(C(=O)CC)C1C1N(C(=O)CC)C(C(N1C(=O)CC)N3C(=O)CC)N2C(=O)CC`: the B-score is inactive: 0.497.

As to `CC(C)(C)C(=O)NC(Sc1ccccc1)C(Cl)(Cl)Cl` (configuration not stated), the B-score is inactive: -1.36.

Regarding `CCOc1ccc(C2=NCC(CBr)S2)cc1` (configuration not stated), the B-score is inactive: 1.09.

For `CC(=O)Nc1ccc(Oc2c([N+](=O)[O-])cc([N+](=O)[O-])cc2[N+](=O)[O-])cc1`, the B-score is inactive: 0.738.

For `CC(=O)Nc1ccc([As](=O)(O)O)c(O)c1`, the B-score was inactive: -0.533.

Regarding `C[C@H]1OP(=O)(Oc2ccccc2)C[C@@H]2O[C@@H]21` (some centres not stated), the B-score was inactive: 0.878.

Take `C[C@@H]1C=CCP(=O)(Oc2ccccc2)O1` (some centres not stated): the B-score was inactive: 0.137.

On to `Cc1ccc(OP(=O)(Nc2nccs2)Oc2ccc(C)cc2)cc1`, for which the B-score is inactive: 0.0566.

Regarding `COc1ccccc1OP(=O)(Nc1ccc(C)cn1)Oc1ccccc1OC`, the B-score is inactive: 0.715.

For `CN1CCCC(OC(=O)C(c2ccccc2)c2ccccc2)C1` (configuration not stated), the B-score was inactive: 0.605.

In the case of `Clc1ccc(Cl)c(NC2=NCC(CBr)S2)c1` (configuration not stated), the B-score was inactive: -0.114.

For the compound `Cc1ccc(N/C(=N/P(=O)(N2CCOCC2)N2CCOCC2)N2CCOCC2)cc1`, the B-score was inactive: 0.0995.

For `Nc1cc(N)c2nonc2c1[N+](=O)[O-]`, the B-score is inactive: -0.791.

Consider `O=C(NC(Sc1ccncn1)C(Cl)(Cl)Cl)c1ccccc1` (configuration not stated), for which the B-score is inactive: 0.786.

Regarding `Cc1c2non([O-])c-2c(C)[n+](=O)[n+]1[O-]`, the B-score was inactive: 0.341.

On to `Oc1ccccc1CNc1ccccn1`, for which the B-score was inactive: -0.109.

For the compound `Cc1ccc(NP(=O)(Oc2ccccc2F)Oc2ccccc2F)nc1`, the B-score was inactive: -1.98.

In the case of `Cc1cc(SC(NC(=O)c2ccc(F)cc2)C(Cl)(Cl)Cl)ncn1` (configuration not stated), the B-score is inactive: 0.107.

Turning to `CCOP(=O)(Nc1ccccc1)OCC`, the B-score was inactive: 0.317 and inactive: -0.151.

In the case of `CC(=O)Nc1ccc([As](=O)(O)O)cc1`, the B-score was inactive: -0.256.

In the case of `O=C(O)c1ccccc1[As](=O)(O)O`, the B-score is inactive: 0.

Consider `O=P(Nc1nc2ccc(Cl)cc2s1)(c1ccccc1)c1ccccc1`, for which the B-score was active: 15.3.

In the case of `CCN(N=Nc1nonc1N)c1nonc1N`, the B-score is inactive: 0.182.

For `Nc1cccc2ccc([As](=O)(O)O)cc12`, the B-score is inactive: 2.07.

As for `O=C(Nc1cc([As](=O)(O)O)ccc1O)c1ccccc1`, the B-score was inactive: 0.148.

As to `O=[N+]([O-])c1cccc(NC2=NCC(CBr)S2)c1` (configuration not stated), the B-score was inactive: 0.934.

Consider `O=C(O)CNc1ccc([As](=O)(O)O)cc1`, for which the B-score was inactive: -0.0251.

With `CC(C)(C)C(=O)NC(Sc1ccncn1)C(Cl)(Cl)Cl` (configuration not stated), the B-score is inactive: 0.0507.

On to `O=[N+]([O-])c1ncn(CCn2ncnc2[N+](=O)[O-])n1`, for which the B-score was inactive: 0.512.

As for `O=[N+]([O-])c1cccc2n[nH]nc12`, the B-score was inactive: 1.2.

As for `CC(=O)N1C2C3N(C(C)=O)C1C1N(C(C)=O)C(C(N1C(C)=O)N3C(C)=O)N2C(C)=O`, the B-score is inactive: 0.653.

In the case of `O=[N+]([O-])c1cc([N+](=O)[O-])c(CCNc2ccccc2)c([N+](=O)[O-])c1`, the B-score is inactive: -0.666.

Turning to `Cc1ccc(NP(=O)(Oc2ccccc2)Oc2ccccc2)nc1`, the B-score is inactive: -1.04.

As for `CN(C)C(=O)OCCc1n(C)cc[n+]1C`, the B-score was inactive: -0.425.

As for `CC1CCN(C(=O)Oc2c(Cl)cc(Cl)c3cccnc23)CC1`, the B-score was inactive: -1.43.

On to `C[N+]1=C2C=CC=CC=C2SC12C([N+](=O)[O-])=CC([N+](=O)[O-])=C[C-]2[N+](=O)[O-]` (configuration not stated), for which the B-score was active: 14.7.

Take `Nc1ccc([As](=O)(O)c2ccc(N)cc2)cc1`: the B-score is inactive: 1.01.

Regarding `CCN(/C(=N/P(=O)(N1CCOCC1)N1CCOCC1)N1CCOCC1)c1ccc(OC)cc1`, the B-score was inactive: -0.00825.

The values above are taken from PubChem BioAssay AID1456 (Vanderbilt High Throughput Screening Facility, 2008).
